The values that follow come from patent EP3262036B1, “THERAPEUTIC PYRIDAZINE COMPOUNDS AND USES THEREOF” (priority 2015, dated 2016).

This assay has as its target BRG1 (Homo sapiens, UniProt P51532). The experiment in a line: biochemical. The class given is binding. The conditions noted are these: His-BRG1 (A1448-S1575) 4 nM, biotinylated ligand (Example 248) 40 nM; read-out: BRG1 HTRF IC50. For orientation: Time-resolved FRET reads energy transfer from a long-lived donor to a nearby acceptor.

For “2-(6-amino-5-tetrahydropyran-2-yl-pyridazin-3-yl)phenol [Example 237]”, the IC50 stood at 76.1 nM.

`NC(=O)c1ccc(N2C3CCC2CN(c2cc(-c4ccccc4O)nnc2N)C3)cn1` [Example 89, 5-(3-(3-amino-6-(2-hydroxyphenyl)pyridazin-4-yl)-3,8-diazabicyclo[3.2.1]octan-8-yl)picolinamide]: the IC50 turned out to be 51.7 nM.

For `CC1CN(c2cc(-c3ccccc3O)nnc2N)CCN1C(=O)c1ccncn1` (single isomer, unassigned) [Example 153, (4-(3-amino-6-(2-hydroxyphenyl)pyridazin-4-yl)-2-methylpiperazin-1-yl)(pyrimidin-4-yl)methanone], the IC50 is 202 nM.

As to `C[C@@H]1CN(c2cc(-c3ccccc3O)nnc2N)C[C@@H](C)N1S(C)(=O)=O` [Example 114, 2-(6-amino-5-((3R,5R)-3,5-dimethyl-4-(methylsulfonyl)piperazin-1-yl)pyridazin-3-yl)phenol], the IC50 turned out to be 51.5 nM.

On to `C[C@H]1CC[C@@H](c2cc(-c3ccccc3O)nnc2N)CC1` (single isomer, unassigned) [Example 226], for which the IC50 is 20.9 nM.

In the case of `Nc1nnc(-c2ccccc2O)cc1[C@H]1CCCCO1` (single isomer, unassigned) [Example 240], the IC50 worked out at 64.9 nM.

Consider `Nc1nnc(-c2ccccc2O)cc1N1CC[C@]2(O)CCCC[C@@H]2C1` [Example 85, (trans-4a,8a)-2-(3-amino-6-(2-hydroxyphenyl)pyridazin-4-yl)decahydroisoquinolin-4a-ol], for which the IC50 worked out at 11 nM.

Consider `CC1CN(c2cc(-c3ccccc3O)nnc2N)CCN1C(=O)c1ccncn1` (single isomer, unassigned) [Example 154, (4-(3-amino-6-(2-hydroxyphenyl)pyridazin-4-yl)-2-methylpiperazin-1-yl)(pyrimidin-4-yl)methanone], for which the IC50 is 49.6 nM.

In the case of `Nc1nnc(-c2ccccc2O)cc1C(=O)N[C@@H]1C[C@H]1c1ccccc1` (relative stereo) [Example 235, 3-amino-6-(2-hydroxyphenyl)-N-(trans-2-phenylcyclopropyl)pyridazine-4-carboxamide], the IC50 was found to be 214 nM.

As for `Nc1nnc(-c2ccccc2O)cc1[C@@H](O)[C@H](O)Cc1ccccc1` [Example 201], the IC50 was determined as 312 nM.

Consider `C[C@H]1CN(c2cc(-c3ccccc3O)nnc2N)C[C@H](C)N1S(C)(=O)=O` [Example 113, 2-(6-amino-5-((3S,5S)-3,5-dimethyl-4-(methylsulfonyl)piperazin-1-yl)pyridazin-3-yl)phenol], for which the IC50 worked out at 263 nM.

Consider `C[C@@H]1CN(c2cc(-c3ccccc3O)nnc2N)CCN1c1ccccc1` [Example 83, 2-(6-Amino-5-(3-methyl-4-phenylpiperazin-1-yl)pyridazin-3-yl)phenol], for which the IC50 is 27.6 nM.

As to `C[C@H]1CC[C@H](c2cc(-c3ccccc3O)nnc2N)CC1` (single isomer, unassigned) [Example 225, 2-(6-amino-5-((1,4-trans)-4-methylcyclohexyl)pyridazin-3-yl)phenol], the IC50 is 19 nM.

In the case of `Nc1nnc(-c2ccccc2O)cc1[C@@H]1CCCCO1` (single isomer, unassigned) [Example 241], the IC50 is 119 nM.

Regarding `Cn1ccc(CN2CCN(c3cc(-c4ccccc4O)nnc3N)CC2)n1` [Example 100, 2-[6-amino-5-[4-[(1-methylpyrazol-3-yl)methyl]piperazin-1-yl]pyridazin-3-yl]phenol], the IC50 turned out to be 38 nM.

Take `C[C@H]1CN(c2cc(-c3ccccc3O)nnc2N)CCN1c1ccccc1` [Example 82, 2-(6-Amino-5-(3-methyl-4-phenylpiperazin-1-yl)pyridazin-3-yl)phenol]: the IC50 came to 68.4 nM.

In general, IC50 refers to the concentration at which inhibition is half-maximal.
